Source: PubChem BioAssay AID504558 (Broad Institute, 2011)
The list shows a part of the results, in another mix than the full data. Active and inactive are the calls of the source. Cut-off read from the data, not from the text of the source: active = inhibition above about 41%; inconclusive = no clear call, values can overlap the other calls; inactive = below that.

Assay: EBV LMP1-driven NF-kappaB luciferase reporter inhibitors, primary screen, cell-based, luminescence, single point (AID 504558);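 note: 0% = neutral control wells and 100% = reference inhibitor control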
Settings: LMP1-induced NF-kappaB luciferase reporter cells, at 12.5 µM, stronger effect = higher value

| SMILES | inhibition |
| --- | --- |
| Cc1cccc(OCC(=O)OC2CN3CCC2CC3)c1 (configuration not stated) | inactive: -1.75% |
| Cc1ccc(NCCc2c([N+](=O)[O-])cc([N+](=O)[O-])cc2[N+](=O)[O-])cc1 | inactive: 2.62% |
| Nc1cccc2c([As](=O)(O)O)cccc12 | inactive: 10.5% |
| CCCOP(=S)(Nc1nc(N)cc(=O)[nH]1)OCCC | inactive: -0.736% |
| COc1cc(C2NCCC3(OCCO3)C2(C)C)cc(OC)c1OC (configuration not stated) | inactive: -2.32% |
| CCOP(=O)(Nc1cccc2ccccc12)OCC | inactive: -0.133% |
| CCOP1(=S)c2c(C)nn(CCC#N)c2N=C(c2ccccc2F)N1C (configuration not stated) | inactive: -1.86% |
| O=P(Nc1nccs1)(c1ccccc1)c1nc2ccccc2s1 (configuration not stated) | inactive: -15.2% |
| O=P(Nc1nccs1)(Oc1ccccc1)Oc1ccccc1 | inactive: 0.946% |
| CS(=O)(=O)c1cc([N+](=O)[O-])c2no[n+]([O-])c2c1 | inactive: -3.76% |
| Nc1ccccc1[As](=O)(O)c1ccccc1 | inactive: 0.621% |
| O=C(O)COc1ccc([As](=O)(O)O)cc1[N+](=O)[O-] | inactive: -1.94% |
| NC(=O)Nc1ccc([As](=O)(O)O)cc1 | inactive: 1.48% |
| N#CCCN(C(=O)COC(=O)C(O)(c1ccccc1)c1ccccc1)c1ccc(F)cc1 | inactive: -9.77% |
| CN(C(=O)Cc1ccccc1)[C@@H]1CC[C@]2(CCCO2)C[C@H]1N1CCCC1 | inactive: 4.61% |
| CCOP1(=S)c2c(C)nn(CCC#N)c2N=C(c2ccc(F)cc2)N1C (configuration not stated) | inactive: -7.27% |
| CN(C)C(=O)c1cc([N+](=O)[O-])cc2c1-c1c(cc([N+](=O)[O-])cc1[N+](=O)[O-])C2=O | inactive: 31.1% |
| O=[N+]([O-])c1ccc2c(c1)nnn2O | inactive: -13.6% |
| CN(C(=O)Cc1ccc(Cl)c(Cl)c1)[C@H]1CC[C@@]2(CCCO2)C[C@@H]1N1CCCC1 | inactive: 1.84% |
| Cc1nn(-c2ccccc2)c2c1P(=O)(N1CCOCC1)N(C)C(c1ccccc1)=N2 (configuration not stated) | inactive: 1.74% |
| CC1CCC(C(C)C)C(OP(=O)(Nc2ccccn2)c2ccccc2)C1 (configuration not stated) | inactive: -1.37% |

| SMILES | inhibition |
| --- | --- |
| Cc1ccc(C(=O)OC2CN3CCC2CC3)cc1 (configuration not stated) | inactive: 6.09% |
| CN(C)C1(CNC(=O)c2ccc(S(C)(=O)=O)cc2)CCCCC1 | inactive: -0.713% |
| O=C(/C=C/c1ccccc1)OC1CN2CCC1CC2 (configuration not stated) | inactive: -7.13% |
| CCCC1OP(=O)(Nc2ccccc2)OCC1CC (configuration not stated) | inactive: -2.3% |
| O=P1(Nc2ncccn2)COc2ccccc2OC1 | inactive: 3.01% |
| Nc1cccc([As](=O)(O)c2ccccc2)c1 | inactive: -4.43% |
| O=P1(Nc2ccc(Br)cn2)COc2ccccc2OC1 | inactive: 3.86% |
| NS(=O)(=O)c1cccc(NC(=O)COC(=O)C(O)(c2ccccc2)c2ccccc2)c1 | inactive: 0.744% |
| Cc1ccc(OCC(=O)OC2CN3CCC2CC3)cc1 (configuration not stated) | inactive: 3.17% |
| O=[As](O)(c1cccs1)c1cccs1 | inactive: 0.924% |
| O=P1(Nc2ccccn2)COc2ccccc2OC1 | inactive: -3.55% |
| CCC1=CC2Cc3nc4ccc(Cl)cc4c(N)c3C(C1)C2 (configuration not stated) | inactive: 11.1% |
| CCOP(=O)(NC(=NC(C)c1ccccc1)NC(C)c1ccccc1)OCC (configuration not stated) | inactive: 2.63% |
| CCOP(=O)(Nc1ccc(C)cn1)OCC | inactive: -6.46% |
| O=P1(N(CCCl)CCCl)NCCC(C(F)(F)F)O1 (configuration not stated) | inactive: 0.163% |
| Clc1n[nH]nc1-c1nn[nH][15n]1 | inactive: -3.39% |
| CC(C)(C)C(=O)NC(Sc1ncccn1)C(Cl)(Cl)Cl (configuration not stated) | inactive: 0.053% |
| COc1ccccc1CNC(=O)COC(=O)C(O)(c1ccccc1)c1ccccc1 | inactive: 8.48% |
| CC(C)/C=N\N=C(\N)N[N+](=O)[O-] | inactive: -2.93% |
| CN(C(=O)Cc1ccc(Cl)c(Cl)c1)[C@@H]1CCCC[C@H]1N1CCCC1 | inactive: -2.53% |
| CC1(CBr)Cn2c(nc3ccccc3c2=O)S1 (configuration not stated) | inactive: -9.21% |
